This assay has as its target PCNA (Homo sapiens, UniProt P12004). As to the kind of experiment: Fluorescence polarization competition assay (displacement of FAM-PL from His-tagged PCNA). To be noted: for Ki: calculated from IC50 using equation 5 (modified Cheng-Prusoff), 95% confidence interval around the mean; for IC50: disruption of PCNA / FAM-PL binding, values are 95% confidence interval around the mean.

Protein sequences, listed by entry. Tags and fused reporters are not part of them. Chains listed by the source or under a name are the forms on record and can include a tag or linker. Residues count along the entry.
UniProt P12004, 1-261 with tags or gaps: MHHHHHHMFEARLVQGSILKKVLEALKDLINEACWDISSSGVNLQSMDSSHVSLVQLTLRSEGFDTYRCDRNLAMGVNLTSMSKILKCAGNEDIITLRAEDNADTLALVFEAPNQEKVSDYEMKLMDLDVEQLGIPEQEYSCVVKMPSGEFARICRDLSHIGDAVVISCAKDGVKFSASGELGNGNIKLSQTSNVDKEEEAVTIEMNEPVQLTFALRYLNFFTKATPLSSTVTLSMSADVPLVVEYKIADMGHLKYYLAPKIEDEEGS

For `NC(=O)CC[C@H](NC(=O)CN[C@H](CO)Cc1cc(I)c(Oc2ccc(O)cc2)c(I)c1)C(N)=O`, the Ki was 339 nM and the IC50 was determined as 3520 nM.

Regarding `NC(=O)CN(Cc1ccc2c(c1)OCO2)C(=O)CNC(=O)CN[C@H](CO)Cc1cc(I)c(Oc2ccc(O)cc2)c(I)c1`, the Ki is 1560 nM and the 50% inhibitory concentration (IC50) worked out at 16200 nM.

As to `NCC(=O)N(CC(=O)N(CC(N)=O)Cc1ccc(CO)cc1)Cc1ccc2c(c1)OCO2`, the Ki is 745 nM and the IC50 was 7740 nM.

Regarding `NCCCCNCC(=O)N(CC(=O)N(CC(N)=O)Cc1ccc(CO)cc1)Cc1ccc2c(c1)OCO2`, the Ki is 186 nM and the IC50 stood at 1940 nM.

As to `NC(=O)C[C@H](NC(=O)CN[C@H](CO)Cc1cc(I)c(Oc2ccc(O)cc2)c(I)c1)C(N)=O`, the Ki was 693 nM and the IC50 turned out to be 7200 nM.

The values are drawn from patent US11400130B2, “Inhibitors for proliferating cell nuclear antigen and uses” (Purdue Research Foundation, priority 2015, dated 2022).
